Consider 1 compound from BindingDB's records for doi:10.1021/jm9508853 (University of Maryland, 2021).

The assay addresses B-cell lymphoma 6 protein (Homo sapiens, UniProt P41182). Kind of assay: Inhibition of human BCL6 BTP domain measured by fluorescence polarization assay.

For `Cn1c(=O)n(C)c2cc(Nc3ccnc(Cl)c3C#N)ccc21`, the IC50 was found to be 11 µM.
